Results published in patent US8604040B2 (priority 2010, dated 2013).

Assay: log P by HPLC (EEC Directive 79/831 Annex V.A8)
Type: physicochemical
[1] = [c] LC-MS, neutral range, pH 7.8, 0.001 molar aqueous ammonium hydrogencarbonate and acetonitrile

Structure (SMILES) | log P [1] | log P ([b] LC-MS, acidic range, pH 2.7, 0.1% aqueous formic acid and acetonitrile)
Cc1cc(C(F)(F)F)nn1CC(=O)N1CCC(c2cccc(C(=O)Nc3cccc4ccccc34)n2)CC1 [Example 29] | 3.91 | –
C=CCCCCOC(=O)c1cccc(N2CCN(C(=O)Cn3nc(C(F)(F)F)cc3C)CC2)n1 [Example 71] | – | 3.92
Cc1cc(C(F)(F)F)nn1CC(=O)N1CCN(c2cccc(C(=O)OC3CCCCC3)n2)CC1 [Example 69] | 3.98 | –
